Source: patent publication US20080096951A1, “Carvedilol Monocitrate Monohydrate” (SB Pharmo Puerto Rico Inc., priority 2002, published 2008)

Experiment: Solubility in water (shaken vials, UV-Vis analysis of carvedilol concentration)
Conditions: 25° C., 48 hr, expressed as mg of carvedilol free base/mL of solution
Description: Glass vials containing water and excess amount of carvedilol salts were shaken by a mechanical shaker at ambient conditions. Aliquots were taken out at various time-point, filtered through 0.45 μm Acrodisc GHP filter. The pH of the filtered solutions was measured and suitable dilution was performed prior to UV-Vis analysis of carvedilol concentration.

For “carvedilol monocitrate monohydrate [Carvedilol Mono-Citrate salt]”, which “Aqueous Solubility” value is on record?
The value was 1020 µg/mL.
